Source: US10335503B2, “Compound that specifically binds to AMPA receptor” (Public University Corporation Yokohama City University, priority 2015, dated 2019)

Amino acid sequences for entries named in this document (tags omitted).
UniProt P30411, whole entry: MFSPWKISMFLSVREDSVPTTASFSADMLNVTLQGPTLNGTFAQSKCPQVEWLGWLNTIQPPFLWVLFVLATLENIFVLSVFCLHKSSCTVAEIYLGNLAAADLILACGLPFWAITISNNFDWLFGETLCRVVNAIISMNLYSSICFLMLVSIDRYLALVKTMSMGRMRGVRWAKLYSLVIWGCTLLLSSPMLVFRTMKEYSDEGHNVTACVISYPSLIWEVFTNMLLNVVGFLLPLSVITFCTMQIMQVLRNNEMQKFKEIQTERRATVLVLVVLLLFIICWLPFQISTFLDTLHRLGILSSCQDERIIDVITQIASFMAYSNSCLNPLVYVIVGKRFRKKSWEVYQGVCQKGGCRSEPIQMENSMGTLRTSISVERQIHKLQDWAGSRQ

Tests used:
Details in all cases: Positive substance, concentration not given
[1] = molecular target: Angiotensin AT1 (Homo sapiens, UniProt P30556); assay: Receptor binding panel: Angiotensin AT1
[2] = molecular target: T1, Angiotensin AT2 (Homo sapiens, UniProt P50052); assay: Receptor binding panel: Angiotensin AT2
T1 sequence (P50052 1-363): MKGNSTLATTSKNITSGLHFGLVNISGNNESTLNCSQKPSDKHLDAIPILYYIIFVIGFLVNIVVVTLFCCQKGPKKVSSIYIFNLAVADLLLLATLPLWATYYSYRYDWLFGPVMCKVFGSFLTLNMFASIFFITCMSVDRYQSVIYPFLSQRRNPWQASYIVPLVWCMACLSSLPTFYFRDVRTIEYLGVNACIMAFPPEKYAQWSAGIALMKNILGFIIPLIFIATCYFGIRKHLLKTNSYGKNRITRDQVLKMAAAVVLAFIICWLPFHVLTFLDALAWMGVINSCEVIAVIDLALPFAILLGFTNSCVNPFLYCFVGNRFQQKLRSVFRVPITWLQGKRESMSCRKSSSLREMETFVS

[3] = molecular target: Bradykinin B2 (Homo sapiens, UniProt P30411); assay: Receptor binding panel: Bradykinin B2

Row | Inhibition (%) [1] [%] | Inhibition (%) [2] [%] | Inhibition (%) [3] [%] | Substance
1 | 100.00 | 100.00 | – | Angiotensin II [reference compound]
2 | – | – | 99.47 | HOE140 [reference compound]
